Screening results deposited in PubChem BioAssay by Broad Institute.
Yeast UUG start – modulators of yeast start codon fidelity, primary screen, whole organism, S. cerevisiae, single point, plate reader; S. cerevisiae UUG-firefly luciferase reporter, luminescence/redox ratio; activity score, % at 18.7 µM; actives 0.13% (n = 350,000); AID 602363, 2012;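 active = replicate mean at a twofold rise or more, about +100% in these data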;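 also: firefly luciferase made from a UUG start codon reports start codon fidelity; reporter light over untreated wells divided by growth signal over untreated wells; some hits fall short of that in this replicate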
GSIS activator – primary screen for activators of insulin secretion dependent on glucose, INS-1E cells, GLuc reporter luminescence | INS-1E GLuc reporter insulin secretion, 2-3 h | activation, % at 16.6 µM | 0.61% of 370,000 active;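 active = lowest replicate activation of at least 40%, so every replicate reaches that level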;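 note: 0% = median of neutral control wells and 100% = median of IBMX positive control wells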
SR-BI DiI-HDL act – SR-BI HDL lipid transfer activation; activation, % at 12.5 µM; CHO ldlA[mSR-BI] cells, DiI-HDL uptake fluorescence, 3 h; 100 = double the neutral-control signal; 0.096% of 320,000 active;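 active = mean replicate activation of at least 60% and every replicate at or above 60%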;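 note: 0% = median plate neutral-control signal and 100% = twice that signal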
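Test system: SR-BI-overexpressing, LDLR-lacking CHO cells. Measured by: DiI fluorescence, bottom read. Medium: Ham's F12 with 0.5% BSA, HEPES 25 mM, pH 7.4. Timing: 3 h uptake period with compound, 37 °C.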
SR-BI DiI inh – inhibitors of mouse SR-BI mediated HDL lipid uptake; ldlA[mSR-BI] CHO cells, DiI-HDL uptake fluorescence, 3 h; inhibition, % at 12.5 µM; 0.96% of 320,000 active;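 active = mean replicate inhibition of at least 70% and a set share of replicates each scoring 70 or more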;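 note: 0% = median of neutral control wells and 100% = median of positive control wells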
* hit, by the source's call; . = not tested or not shown; ! = not active in a repeat. This is a sample that favours compounds with a hit; in the whole collection about 1.3% have one here.

SMILES	Yeast UUG start	GSIS activator	SR-BI DiI-HDL act	SR-BI DiI inh
COc1ccc(NC(=O)Nc2ccc3c(c2)CC(=O)N([C@@H](C)CO)C[C@@H](C)[C@H](CN(C)S(=O)(=O)c2ccc(Cl)cc2)O3)cc1	.	-32	.	.
O=C(Cc1ccsc1)NNC(=O)c1ccccc1Cl	.	42*	24	-24
CCN1C(=O)C(=Cc2cccc(OC)c2Oc2ccc([N+](=O)[O-])cc2[N+](=O)[O-])SC1=S	-10	0	-75	75*
COc1ccc(CN2CC3(CCN(C(=O)C4CCC4)CC3)c3c(n(C)c4cc(OC)ccc34)[C@@H]2CO)cc1	.	-11	.	.
CC1CCC(NCCNC(=O)c2ccco2)CC1 (stereo unspecified)	3	44*	.	.
CCC(=O)Nc1cc(C(C)(C)C)ccc1C(C)=O	.	67*	-11	11
Cc1cc2ccccn2c1C(=O)c1cc([N+](=O)[O-])cc([N+](=O)[O-])c1	.	-3	-83	82*
COC(=O)c1cc(C(=O)c2c(C)cc3ccccn23)cc([N+](=O)[O-])c1	-6	4	.	.
CCOc1cc(/C=C2/C(=N)N3C=CSC3=NC2=O)ccc1OCCCOc1ccccc1C	-20	.	-102	102*
CC1=CN2C(=N)/C(=C/c3cn(CCCOc4ccccc4C)c4ccccc34)C(=O)N=C2S1	-22	47*	-28	28
COc1cccc(OCCCn2cc(/C=C3/C(=N)N4C=C(C)SC4=NC3=O)c3ccccc32)c1	.	31	-51	51
COc1cc(/C=C2/C(=N)N3C=CSC3=NC2=O)ccc1OCCCOc1c(C)cccc1C	-9	-27	-81	81*
C=C1SC(=Nc2c(C)cccc2Cl)N(C(=O)c2sc3ccccc3c2Cl)C12CCCCC2	-16	135*	-4	4
CCOc1nc(Nc2ccccc2F)nc(OCC)n1	-10	62*	3	-3
COc1ccc(CNCCSc2nnnn2C)cc1OC	-9	16	3	-3
COc1cccc(CNCCSc2nnnn2C)c1	-26	.	60*	-60
C[C@H](CO)N1C[C@H](C)[C@@H](CN(C)S(=O)(=O)c2cccs2)OCCCC[C@H](C)Oc2ccc(NC(=O)Nc3ccc4c(c3)OCO4)cc2C1=O	-14	0	.	.
C[C@@H]1CCCCO[C@@H](CN(C)Cc2ccc(Cl)c(Cl)c2)[C@@H](C)CN([C@@H](C)CO)C(=O)c2cc(NS(=O)(=O)c3ccccc3)ccc2O1	3	4	.	.
C/C(=N\NC(N)=S)c1ccc(Cl)s1	.	13	-79	79*
C/C(=N\NC(=S)NC(C)C)c1ccc(Cl)s1	-25	6	-22	22

Look-ups from the results shown:
C=C1SC(=Nc2c(C)cccc2Cl)N(C(=O)c2sc3ccccc3c2Cl)C12CCCCC2 in Yeast UUG start reads -16
COc1ccc(CNCCSc2nnnn2C)cc1OC in SR-BI DiI-HDL act reads 3
COc1cc(/C=C2/C(=N)N3C=CSC3=NC2=O)ccc1OCCCOc1c(C)cccc1C in GSIS activator reads -27
C/C(=N\NC(=S)NC(C)C)c1ccc(Cl)s1 in Yeast UUG start reads -25

New compounds follow:
SMILES	Yeast UUG start	GSIS activator	SR-BI DiI-HDL act	SR-BI DiI inh
C[C@@H]1CN([C@H](C)CO)C(=O)c2cc(C#CC3(O)CCCC3)cnc2O[C@H]1CN(C)S(=O)(=O)c1ccccc1	-6	8	.	.
CO[C@H]1CN(C)C(=O)c2cc(NC(=O)Nc3cc(F)ccc3F)ccc2OC[C@H](C)N(C)C[C@H]1C	31	-16	.	.
O=S(=O)(c1ccc(=S)[nH]c1)N1CCCCCC1	-23	42*	15	-15
O=C(C[C@H]1C=C[C@@H](NC(=O)Nc2ccc(F)cc2)[C@@H](CO)O1)NCCN1CCCC1	-10	4	.	.
Cc1cc(Cl)ccc1NC(=O)C1CCCN1C(=O)c1cccs1 (stereo unspecified)	.	-7	36	-36
CCN(C(=O)[C@@H]1CCCN1C(=O)c1cccs1)c1nc2cc(Cl)ccc2s1	-7	-33	-78	78*
Cc1ccccc1-c1ccc(C2[C@@H]3CN(S(=O)(=O)c4ccccc4C)C[C@H]2N3)cc1 (stereo partly specified)	.	179*!	.	.
O=C(Nc1cccc(F)c1)N1C[C@@H]2N[C@H](C1)C2c1ccc(-c2ccccc2F)cc1 (stereo partly specified)	.	-5	.	.
COc1ccccc1S(=O)(=O)N1C[C@@H]2N[C@H](C1)C2c1ccc(-c2ccccc2C)cc1 (stereo partly specified)	.	3	.	.
COc1cc(CN2C[C@@H]3N[C@H](C2)C3c2ccc(/C=C/c3ccccc3)cc2)cc(OC)c1 (stereo partly specified)	.	84*!	.	.
Cc1ccc(S(=O)(=O)N2C[C@@H]3N[C@H](C2)C3c2ccc(/C=C/c3ccccc3)cc2)cc1 (stereo partly specified)	.	502*!	.	.
Cc1ccccc1-c1ccc(C2[C@@H]3CN(C(=O)Nc4cccc(F)c4)C[C@H]2N3)cc1 (stereo partly specified)	.	93*!	.	.
CCOC(=O)/C=c1\s/c(=C\c2c(OCC)ccc3ccccc23)c(=O)n1CC(=O)NCC1CCCO1 (stereo unspecified)	.	.	-91	91*
Cc1cc(C)c(OCC(=O)OCC(=O)N(C)C2CCS(=O)(=O)C2)c(C)c1 (stereo unspecified)	-5	41*	3	-3
CCC(C)N(C(=O)COC(=O)COc1c(C)cc(C)cc1C)C1CCS(=O)(=O)C1 (stereo unspecified)	.	26	-27	27
CN(C)c1ccc2c(c1)[C@@H]1C[C@@H](CC(=O)NCc3ccc(Cl)cc3)O[C@H](CO)[C@@H]1O2	-23	1	.	.
COCCCNC(=S)Nc1cc2oc3ccccc3c2cc1OC	-28	-6	-88	88*
COc1cc2c(cc1NC(=S)Nc1cccc3ccccc13)oc1ccccc12	-18	.	-77	77*
COc1cc2c(cc1NC(=S)Nc1cccc(C(F)(F)F)c1)oc1ccccc12	-48	.	-75	75*
Cc1noc(C)c1NC(=O)Nc1ccc2c(c1)C(=O)N([C@H](C)CO)C[C@H](C)[C@H](CN(C)C(=O)Nc1c(C)noc1C)O2	12	15	.	.
CO[C@H]1CN(C)C(=O)c2cc(NS(=O)(=O)c3ccc(C)cc3)ccc2OC[C@@H](C)N(C)C[C@@H]1C	12	7	.	.
COCCn1c(C)cc(/C=N/NC(=O)c2cc3ccccc3cc2O)c1C	.	.	-95	95*
COc1cc(/C=N/NC(=O)c2cc3ccccc3cc2O)ccc1OCCN1CCCCC1	.	.	-77	77*
O=S(=O)(c1ccc(F)cc1)N1CC[C@@H]2[C@H](CO)Nc3ccc(C#CC4CC4)cc3[C@@H]21	.	-11	.	.
COc1cccc(/C=N/NC(=O)N/N=C/c2cccc(OC)c2O)c1O	-16	-27	-83	83*
COc1cccc(/C=N\NC(=O)c2ccc(Cn3cc(Br)c([N+](=O)[O-])n3)o2)c1O	.	0	-101	101*
COc1cccc(C=NNC(=O)c2ccncc2)c1O	-17	6	-31	31
COc1ccccc1C=NNC(=O)NN=Cc1ccccc1OC	-17	-12	-39	39
COc1cccc(/C=N/NC(=O)c2nc(-c3ccccc3)cc(-c3ccccc3)n2)c1O	-22	-6	-106	106*
COc1cccc(/C=N/NC(=O)c2c(C)nc3ccc(Br)cn23)c1O	-12	.	-100	100*
COCC(=O)Nc1ccc2c(c1)OC[C@@H](C)N(Cc1ccccc1F)C[C@H](C)[C@@H](OC)CN(C)C2=O	.	-12	.	.

3 compounds picked at random from those above, as already listed:
SMILES	Yeast UUG start	GSIS activator	SR-BI DiI-HDL act	SR-BI DiI inh
COc1cccc(C=NNC(=O)c2ccncc2)c1O	-17	6	-31	31
Cc1noc(C)c1NC(=O)Nc1ccc2c(c1)C(=O)N([C@H](C)CO)C[C@H](C)[C@H](CN(C)C(=O)Nc1c(C)noc1C)O2	12	15	.	.
COc1cccc(/C=N/NC(=O)c2c(C)nc3ccc(Br)cn23)c1O	-12	.	-100	100*
